Results taken from patent publication US11247001B2, “Delivery device with cantilever structure and associated method of use” (De Motu Cordis Pty Ltd, priority 2016, dated 2022).

Experiment: Particle deagglomeration: particle size distribution of the dose of dry powder emitted by the delivery device
Type: physicochemical
Conditions: Table 2, performance of device, N = 8, 68% CI
Source text: The performance of the delivery device can be measured by how closely the particle size distribution of the emitted powder approaches the original distribution.
An embodiment of the device that stored Mannitol on a corrugated reed was also compared to the embodiment of the device that stored and dispensed Mannitol from a blister.

## CNCC(O)c1ccc(O)c(O)c1 (stereo not shown) [Adrenaline]
  Fine Particle Fraction < 5 um (%): 30.4-37.1%
